Experimental data: patent US20080064679A1, “Water Soluble Cannabinoids” (priority 2004, published 2008)

Protein sequences, listed by entry. Tags and fused reporters are not part of them.
UniProt P34972, whole entry: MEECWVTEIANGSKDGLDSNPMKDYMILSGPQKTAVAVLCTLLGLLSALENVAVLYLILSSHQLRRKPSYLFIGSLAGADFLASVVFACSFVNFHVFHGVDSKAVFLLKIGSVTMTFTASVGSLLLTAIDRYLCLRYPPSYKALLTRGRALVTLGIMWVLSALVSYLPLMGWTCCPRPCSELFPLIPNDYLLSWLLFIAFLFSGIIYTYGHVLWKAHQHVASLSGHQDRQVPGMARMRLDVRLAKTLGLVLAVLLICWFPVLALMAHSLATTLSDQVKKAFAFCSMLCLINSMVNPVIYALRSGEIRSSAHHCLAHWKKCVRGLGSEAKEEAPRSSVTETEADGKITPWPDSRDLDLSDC
UniProt P21554, whole entry: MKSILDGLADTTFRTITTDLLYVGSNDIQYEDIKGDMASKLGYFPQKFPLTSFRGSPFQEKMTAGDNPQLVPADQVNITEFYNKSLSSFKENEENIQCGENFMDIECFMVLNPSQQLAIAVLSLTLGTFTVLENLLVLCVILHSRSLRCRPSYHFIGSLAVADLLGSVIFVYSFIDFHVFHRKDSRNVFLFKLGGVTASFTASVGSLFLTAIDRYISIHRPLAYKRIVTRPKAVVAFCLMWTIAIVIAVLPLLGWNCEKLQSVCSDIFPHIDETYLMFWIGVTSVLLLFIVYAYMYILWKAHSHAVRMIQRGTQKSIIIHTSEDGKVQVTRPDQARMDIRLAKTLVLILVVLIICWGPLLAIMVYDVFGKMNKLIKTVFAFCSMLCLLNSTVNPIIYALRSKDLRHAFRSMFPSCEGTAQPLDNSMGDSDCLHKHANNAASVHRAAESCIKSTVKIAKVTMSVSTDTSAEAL

Columns and labels:
human CB2 receptor = human CB2 receptor (Homo sapiens, UniProt P34972); assay: CB2 receptor binding, [3H]CP55,940 displacement in membranes of transfected cells; conditions: read-out: CB2 Ki, Tables 2b, 3b, 4a, mean±SEM
mice [1] = assay: Rectal temperature (R.T.), mouse tetrad; format: in vivo; conditions: for R.T. ED50 (lowering rectal temperature): i.v.; for ED50 after i.v. administration, rectal temperature: figure legends, saline
human CB1 receptor [2] = target: T1, human CB1 receptor (Homo sapiens, UniProt P21554); assay: CB1 receptor binding, [3H]CP55,940 displacement in membranes of transfected cells; conditions: for Ki: read-out: CB1 Ki, Tables 2b, 3b, 4a, mean±SEM
mice [3] = assay: Tail-flick antinociception (T.F.), mouse tetrad; format: in vivo; conditions: for T.F. ED50 (antinociception in the tail-flick procedure): i.v.; for ED50 after i.v. administration, tail-flick response: figure legends, saline
mice [4] = assay: Relative immobility (R.I.), ring-immobility test, mouse tetrad; format: in vivo; conditions: for R.I. ED50 (relative immobility): i.v.; for ED50 after i.v. administration, relative immobility: figure legends, saline
human CB1 receptor [5] = target: T1, human CB1 receptor; assay: [35S]GTPγS binding assay in membranes of CB1 expressing cells; format: biochemical; conditions: for CB1 % CP Stim: maximal GTPγS binding as percentage of stimulation produced by CP 55,940; for EC50: read-out: CB1 EC50, [35S]GTPγS binding, mean±SEM
[6] = 1 mg of analog in 1 ml of water, visual observation
mice [7] = assay: Spontaneous activity (S.A.), mouse tetrad; format: in vivo; conditions: for ED50 after i.v. administration, spontaneous activity: figure legends, saline; for S.A. ED50 (reducing spontaneous activity): i.v.
mice [8] = assay: Tetrad model, all four behavioral measures together (time course, oral and i.c.v. administration); format: in vivo, mouse; conditions: for Time course of effects after i.v. administration: saline; for Potency following oral administration (four tests): 30 minutes before the start of testing; for Activity in the behavioral tests after i.c.v. injection: analogs dissolved in water, THC in emulphor:ethanol:saline, Table 5 not given
[9] = vehicle saline, tested form: iodide
[10] = vehicle saline, tested form: hydrochloride
[11] = vehicle saline, tested form: HCl
[12] = vehicle saline, tested form: 2HCl
[13] = vehicle E:E:S (1:1:18), tested form: hydrochloride
[14] = vehicle E:E:S (1:1:18), tested form: HCl
[15] = vehicle E:E:S (1:1:18), tested form: iodide
[16] = vehicle saline, tested form: dihydrochloride

CC1=CC[C@@H]2[C@@H](C1)c1c(OC(=O)C(C)CC[N+](C)(C)C)cc(C(C)(C)CCCCC#N)cc1OC2(C)C (stereo partly drawn)
Ki (human CB2 receptor; tested form: iodide): 7.4 nM
R.T. ED50 (lowering rectal temperature) (mice [1]; [9]): 3.82 µmol/kg
Ki (human CB1 receptor [2]; tested form: iodide): 45.4 nM
T.F. ED50 (antinociception in the tail-flick procedure) (mice [3]; [9]): 1.99 µmol/kg
R.I. ED50 (relative immobility) (mice [4]; [9]): 14.81 µmol/kg
CB1 % CP Stim (human CB1 receptor [5]; tested form: iodide): 113 ± 4.65%
EC50 (human CB1 receptor [5]; tested form: iodide): 138 nM
Solubility (water-soluble) ([6]; tested form: iodide): Yes

CC1=CC[C@@H]2[C@@H](C1)c1c(OC(=O)C(C)CCN(C(C)C)C(C)C)cc(C(C)(C)CCCCC#N)cc1OC2(C)C (stereo partly drawn)
Ki (human CB2 receptor; tested form: hydrochloride): 1.99 nM
ED50 after i.v. administration, rectal temperature (mice [1]; tested form: hydrochloride): 1.9 µmol/kg
R.T. ED50 (lowering rectal temperature) (mice [1]; [10]): 1.90 µmol/kg
Ki (human CB1 receptor [2]; tested form: hydrochloride): 81.7 nM
Change of CB1 receptor binding with the alpha methyl addition (versus O-2382) (human CB1 receptor [2]; tested form: hydrochloride): 15 fold
ED50 after i.v. administration, tail-flick response (mice [3]; tested form: hydrochloride): 1.0 µmol/kg
T.F. ED50 (antinociception in the tail-flick procedure) (mice [3]; [10]): 1.00 µmol/kg
ED50 after i.v. administration, relative immobility (mice [4]; tested form: hydrochloride): 1.9 µmol/kg
R.I. ED50 (relative immobility) (mice [4]; [10]): 1.92 µmol/kg
ED50 after i.v. administration, spontaneous activity (mice [7]; tested form: hydrochloride): 0.45 µmol/kg
S.A. ED50 (reducing spontaneous activity) (mice [7]; [10]): 0.45 µmol/kg
Time course of effects after i.v. administration (mice [8]; FIG. 9, 3 mg/kg (5 μmoles/kg) i.v., tested form: hydrochloride): At four hours, antinociception is present when almost all other effects have dissipated
Potency following oral administration (four tests) (mice [8]; 10 mg/kg, tested form: hydrochloride): active in all measures
Solubility (water-soluble) ([6]; tested form: hydrochloride): Yes

CC1=CC[C@@H]2[C@@H](C1)c1c(OC(=O)CCCN(C(C)C)C(C)C)cc(C(C)(C)CCCCC#N)cc1OC2(C)C
Ki (human CB2 receptor; tested form: HCl): 1.98 nM
R.T. ED50 (lowering rectal temperature) (mice [1]; [11]): 0.85 µmol/kg
Ki (human CB1 receptor [2]; tested form: HCl): 5.59 nM
T.F. ED50 (antinociception in the tail-flick procedure) (mice [3]; [11]): 0.05 µmol/kg
R.I. ED50 (relative immobility) (mice [4]; [11]): 0.06 µmol/kg
CB1 % CP Stim (human CB1 receptor [5]; tested form: HCl): 77.6 ± 5.58%
EC50 (human CB1 receptor [5]; tested form: HCl): 17.9 nM
S.A. ED50 (reducing spontaneous activity) (mice [7]; [11]): 0.04 µmol/kg
Solubility (water-soluble) ([6]; tested form: HCl): Yes

CC1=CC[C@@H]2[C@@H](C1)c1c(OC(=O)C(C)CCN3CCCCC3C)cc(C(C)(C)CCCCC#N)cc1OC2(C)C (stereo partly drawn)
Ki (human CB2 receptor; tested form: HCl): 0.34 nM
R.T. ED50 (lowering rectal temperature) (mice [1]; [11]): 2.76 µmol/kg
Ki (human CB1 receptor [2]; tested form: HCl): 11.3 nM
T.F. ED50 (antinociception in the tail-flick procedure) (mice [3]; [11]): 0.33 µmol/kg
R.I. ED50 (relative immobility) (mice [4]; [11]): 0.94 µmol/kg
CB1 % CP Stim (human CB1 receptor [5]; tested form: HCl): 81.3 ± 17.9%
EC50 (human CB1 receptor [5]; tested form: HCl): 36.8 nM
S.A. ED50 (reducing spontaneous activity) (mice [7]; [11]): 0.07 µmol/kg
Time course of effects after i.v. administration (mice [8]; FIG. 8, 1 mg/kg (1.6 μmoles/kg) i.v., tested form: HCl): analgesic and relative immobility effects of O-2486 were still present at two hours but not sedation and hypothermia
Potency following oral administration (four tests) (mice [8]; 10 mg/kg, tested form: HCl): highly effective in all four pharmacological measures
Solubility (water-soluble) ([6]; tested form: HCl): Yes

CC1=CC[C@@H]2[C@@H](C1)c1c(OC(=O)CCCN3CCN(C)CC3)cc(C(C)(C)CCCCC#N)cc1OC2(C)C
Ki (human CB2 receptor; tested form: 2HCl): 0.78 nM
R.T. ED50 (lowering rectal temperature) (mice [1]; [12]): 0.09 µmol/kg
Ki (human CB1 receptor [2]; tested form: 2HCl): 2.01 nM
T.F. ED50 (antinociception in the tail-flick procedure) (mice [3]; [12]): 0.04 µmol/kg
R.I. ED50 (relative immobility) (mice [4]; [12]): 0.09 µmol/kg
CB1 % CP Stim (human CB1 receptor [5]; tested form: 2HCl): 82.0 ± 5.84%
EC50 (human CB1 receptor [5]; tested form: 2HCl): 15.9 nM
S.A. ED50 (reducing spontaneous activity) (mice [7]; [12]): 0.03 µmol/kg
Activity in the behavioral tests after i.c.v. injection (mice [8]; tested form: 2HCl): potency similar to that of O-1057 with the exception of a low ability to reduce body temperature
Solubility (water-soluble) ([6]; tested form: 2HCl): Yes

CC1=CC[C@@H]2[C@@H](C1)c1c(OC(=O)CCCN3CCOCC3)cc(C(C)(C)CCCCC#N)cc1OC2(C)C
R.T. ED50 (lowering rectal temperature) (mice [1]; [13]): 0.10 µmol/kg
Ki (human CB1 receptor [2]; tested form: hydrochloride): 15.3 nM
T.F. ED50 (antinociception in the tail-flick procedure) (mice [3]; [13]): 0.03 µmol/kg
S.A. ED50 (reducing spontaneous activity) (mice [7]; [13]): 0.03 µmol/kg
Activity in the behavioral tests after i.c.v. injection (mice [8]; tested form: hydrochloride): active in all behavioral tests, albeit with considerable differences in potency between tests
Solubility (water-soluble) ([6]; tested form: hydrochloride): Yes

CC1=CC[C@@H]2[C@@H](C1)c1c(OC(=O)C(C)CCN(C)C)cc(C(C)(C)CCCCC#N)cc1OC2(C)C (stereo partly drawn)
Ki (human CB2 receptor; tested form: HCl): 0.44 nM
R.T. ED50 (lowering rectal temperature) (mice [1]; [14]): 0.40 µmol/kg
Ki (human CB1 receptor [2]; tested form: HCl): 5.89 nM
T.F. ED50 (antinociception in the tail-flick procedure) (mice [3]; [14]): 0.26 µmol/kg
R.I. ED50 (relative immobility) (mice [4]; [14]): 0.59 µmol/kg
CB1 % CP Stim (human CB1 receptor [5]; tested form: HCl): 119 ± 12.2%
EC50 (human CB1 receptor [5]; tested form: HCl): 16.1 nM
S.A. ED50 (reducing spontaneous activity) (mice [7]; [14]): 0.40 µmol/kg
Solubility (water-soluble) ([6]; tested form: HCl): Yes

CC1=CC[C@@H]2[C@@H](C1)c1c(OC(=O)CCCN(C)C)cc(C(C)(C)CCCCC#N)cc1OC2(C)C
Ki (human CB2 receptor; tested form: HCl): 0.23 nM
R.T. ED50 (lowering rectal temperature) (mice [1]; [11]): 0.35 µmol/kg
Ki (human CB1 receptor [2]; tested form: HCl): 2.61 nM
T.F. ED50 (antinociception in the tail-flick procedure) (mice [3]; [11]): 0.09 µmol/kg
R.I. ED50 (relative immobility) (mice [4]; [11]): 0.16 µmol/kg
CB1 % CP Stim (human CB1 receptor [5]; tested form: HCl): 126 ± 11.3%
EC50 (human CB1 receptor [5]; tested form: HCl): 16.9 nM
S.A. ED50 (reducing spontaneous activity) (mice [7]; [11]): 0.07 µmol/kg
Solubility (water-soluble) ([6]; tested form: HCl): Yes

CC1=CC[C@@H]2[C@@H](C1)c1c(OC(=O)CCC[N+](C)(C)C)cc(C(C)(C)CCCCC#N)cc1OC2(C)C
Ki (human CB2 receptor; tested form: iodide): 0.35 nM
R.T. ED50 (lowering rectal temperature) (mice [1]; [15]): 0.09 µmol/kg
Ki (human CB1 receptor [2]; tested form: iodide): 14.7 nM
T.F. ED50 (antinociception in the tail-flick procedure) (mice [3]; [15]): 0.05 µmol/kg
R.I. ED50 (relative immobility) (mice [4]; [15]): 0.08 µmol/kg
CB1 % CP Stim (human CB1 receptor [5]; tested form: iodide): 112 ± 1.18%
EC50 (human CB1 receptor [5]; tested form: iodide): 60.2 nM
S.A. ED50 (reducing spontaneous activity) (mice [7]; [15]): 0.02 µmol/kg
Solubility (water-soluble) ([6]; tested form: iodide): Yes

CC1=CC[C@@H]2[C@@H](C1)c1c(OC(=O)CCCN3CCCCC3C)cc(C(C)(C)CCCCC#N)cc1OC2(C)C (stereo partly drawn)
Ki (human CB2 receptor; tested form: HCl): 0.7 nM
ED50 after i.v. administration, rectal temperature (mice [1]; tested form: HCl): 0.10 µmol/kg
R.T. ED50 (lowering rectal temperature) (mice [1]; [11]): 0.10 µmol/kg
Ki (human CB1 receptor [2]; tested form: HCl): 2.63 nM
ED50 after i.v. administration, tail-flick response (mice [3]; tested form: HCl): 0.04 µmol/kg
T.F. ED50 (antinociception in the tail-flick procedure) (mice [3]; [11]): 0.04 µmol/kg
ED50 after i.v. administration, relative immobility (mice [4]; tested form: HCl): 0.11 µmol/kg
R.I. ED50 (relative immobility) (mice [4]; [11]): 0.11 µmol/kg
CB1 % CP Stim (human CB1 receptor [5]; tested form: HCl): 77.0 ± 5.87%
EC50 (human CB1 receptor [5]; tested form: HCl): 22.1 nM
ED50 after i.v. administration, spontaneous activity (mice [7]; tested form: HCl): 0.05 µmol/kg
S.A. ED50 (reducing spontaneous activity) (mice [7]; [11]): 0.05 µmol/kg
Potency following oral administration (four tests) (mice [8]; 1 mg/kg, tested form: HCl): effective in all four tests
Solubility (water-soluble) ([6]; tested form: HCl): Yes

CC1=CC[C@@H]2[C@@H](C1)c1c(OC(=O)CCCN3CCCCC3)cc(C(C)(C)CCCCC#N)cc1OC2(C)C
Ki (human CB2 receptor; tested form: hydrochloride): 0.2 nM
R.T. ED50 (lowering rectal temperature) (mice [1]; [10]): 0.03 µmol/kg
Ki (human CB1 receptor [2]; tested form: hydrochloride): 2.73 nM
T.F. ED50 (antinociception in the tail-flick procedure) (mice [3]; [10]): 0.07 µmol/kg
R.I. ED50 (relative immobility) (mice [4]; [10]): 0.10 µmol/kg
CB1 % CP Stim (human CB1 receptor [5]; tested form: hydrochloride): 93 ± 0.68%
EC50 (human CB1 receptor [5]; tested form: hydrochloride): 8.43 nM
S.A. ED50 (reducing spontaneous activity) (mice [7]; [10]): 0.02 µmol/kg
Solubility (water-soluble) ([6]; tested form: hydrochloride): Yes

CC1=CC[C@@H]2[C@@H](C1)c1c(OC(=O)C(C)CCN3CCN(C)CC3)cc(C(C)(C)CCCCC#N)cc1OC2(C)C (stereo partly drawn)
Ki (human CB2 receptor; tested form: dihydrochloride): 1.56 nM
R.T. ED50 (lowering rectal temperature) (mice [1]; [16]): 0.40 µmol/kg
Ki (human CB1 receptor [2]; tested form: dihydrochloride): 6.71 nM
T.F. ED50 (antinociception in the tail-flick procedure) (mice [3]; [16]): 0.17 µmol/kg
R.I. ED50 (relative immobility) (mice [4]; [16]): 0.22 µmol/kg
CB1 % CP Stim (human CB1 receptor [5]; tested form: dihydrochloride): 97.9 ± 10.4%
EC50 (human CB1 receptor [5]; tested form: dihydrochloride): 15.6 nM
S.A. ED50 (reducing spontaneous activity) (mice [7]; [16]): 0.23 µmol/kg
Solubility (water-soluble) ([6]; tested form: dihydrochloride): Yes

Read-outs that look alike come from different tables or passages of the source.
